How the values were obtained:
Type in all cases: protein-complex assay
Casein kinase II [1] = biological target: Casein kinase II (Homo sapiens, UniProt P19784+P67870+P68400, I174A); test: Inhibition of CK2 I174A mutant
Casein kinase II [2] = biological target: Casein kinase II (Homo sapiens, UniProt P19784+P67870+P68400, V66A); test: Inhibition of CK2 V66A mutant
Casein kinase II [3] = biological target: Casein kinase II (Homo sapiens, UniProt P19784+P67870+P68400, I174A/V66A); test: Inhibition of CK2 V66A, I174A mutant

Sequences of proteins named here, by UniProt entry; tags and fusion partners are left off. A change or cut given only in a name is not applied to a line headed by its entry. Residues count along the entry.
UniProt P19784: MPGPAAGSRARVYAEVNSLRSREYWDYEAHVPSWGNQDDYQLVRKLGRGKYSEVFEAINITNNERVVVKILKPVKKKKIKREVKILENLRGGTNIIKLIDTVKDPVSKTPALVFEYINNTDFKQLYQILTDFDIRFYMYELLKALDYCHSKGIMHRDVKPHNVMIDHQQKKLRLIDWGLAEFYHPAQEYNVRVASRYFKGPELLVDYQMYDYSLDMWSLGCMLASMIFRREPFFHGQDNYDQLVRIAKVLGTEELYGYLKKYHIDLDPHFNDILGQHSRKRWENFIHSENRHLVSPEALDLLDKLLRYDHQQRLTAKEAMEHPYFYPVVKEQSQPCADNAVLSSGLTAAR
UniProt P67870, 2-215 limits assumed: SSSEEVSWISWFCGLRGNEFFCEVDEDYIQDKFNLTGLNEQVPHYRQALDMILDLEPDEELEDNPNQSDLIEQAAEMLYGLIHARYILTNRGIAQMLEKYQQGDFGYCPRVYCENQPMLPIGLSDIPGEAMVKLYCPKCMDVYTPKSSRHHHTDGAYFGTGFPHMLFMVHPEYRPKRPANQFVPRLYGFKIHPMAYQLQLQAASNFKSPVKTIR
UniProt P68400, whole entry, stated change not applied: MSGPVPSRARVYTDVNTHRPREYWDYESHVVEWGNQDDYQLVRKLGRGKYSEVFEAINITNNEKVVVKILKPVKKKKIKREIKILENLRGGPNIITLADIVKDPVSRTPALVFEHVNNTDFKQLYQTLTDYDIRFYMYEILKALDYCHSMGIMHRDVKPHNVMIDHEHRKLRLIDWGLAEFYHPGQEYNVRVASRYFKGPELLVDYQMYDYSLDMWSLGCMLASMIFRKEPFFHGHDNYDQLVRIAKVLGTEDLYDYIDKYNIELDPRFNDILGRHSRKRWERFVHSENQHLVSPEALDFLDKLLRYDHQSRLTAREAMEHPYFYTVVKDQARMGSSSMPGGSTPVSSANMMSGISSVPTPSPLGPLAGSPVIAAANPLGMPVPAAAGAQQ

**Q.** Which IC50 (Casein kinase II [1]) does the source give for CN(C)c1nc2c(Br)c(Br)c(Br)c(Br)c2[nH]1 here?
**A.** 3.3 µM

**Q.** And the IC50 (Casein kinase II [2])?
**A.** 1780 nM

**Q.** And the IC50 (Casein kinase II [3])?
**A.** 5.79 µM

From ChEMBL document CHEMBL1149250, “Optimization of protein kinase CK2 inhibitors derived from 4,5,6,7-tetrabromobenzimidazole” (J Med Chem, 2004)
